# Measured values from US20070297980A1, “Geldanamycin and Derivatives Inhibit Cancer Invasion and Identify Novel Targets” (priority 2004, published 2007).
# How the values were obtained:
# [1] = system: HGF/SF-induced MDCK cell scattering; test: Scatter assay, MDCK cells; type: cell-based, canine; settings: FIG. 10
# Experimental: Scatter Assay. In parallel with assessing uPA activity, 96-well plates of MDCK cells were used to detect cell scattering. Cell preparation was same as above (plasmin assay) described above. At the same time as uPA activity was measured, the cells being assayed for scatter were fixed, stained (Diff-Quik Set, Dade Behring AG) and photographed.
# [2] = system: HGF/SF-induced uPA activity in MDCKG3 cells; settings: MDCKG3 cells chronically exposed to MA
# Experimental: Drugs were dissolved in DMSO and serially diluted from stock concentrations into DMEM/10% FBS medium and added to the appropriate wells. Immediately after drug or reagent addition, HGF/SF (60 ng/ml) was added to all wells (with the exception of wells used as controls to calculate basal growth and uPA-plasmin activity levels).
smiles,measurement,setting,value
"COC1=C2C[C@@H](C)C[C@H](OC)[C@H](O)[C@@H](C)/C=C(\C)[C@H](OC(N)=O)[C@@H](OC)/C=C\C=C(/C)C(=O)NC(=CC1=O)C2=O [Compound 1, (+)-Geldanamycin]",concentration range inhibiting HGF/SF-induced MDCK cell scattering,[1],pM to fM range
same,concentration at which effective against HGF/SF-induced uPA activity,[2],10^−3 M
